Results taken from publication PMC7349874, “High Content Screening Using New U2OS Reporter Cell Models Identifies Harmol Hydrochloride as a Selective and Competitive Antagonist of the Androgen Receptor” (Cells, 2020).

Protein sequences, listed by entry. Tags and fused reporters are not part of them. Lines headed by an entry give the natural chain unless they say otherwise; changes in a name come on top.
UniProt P10275: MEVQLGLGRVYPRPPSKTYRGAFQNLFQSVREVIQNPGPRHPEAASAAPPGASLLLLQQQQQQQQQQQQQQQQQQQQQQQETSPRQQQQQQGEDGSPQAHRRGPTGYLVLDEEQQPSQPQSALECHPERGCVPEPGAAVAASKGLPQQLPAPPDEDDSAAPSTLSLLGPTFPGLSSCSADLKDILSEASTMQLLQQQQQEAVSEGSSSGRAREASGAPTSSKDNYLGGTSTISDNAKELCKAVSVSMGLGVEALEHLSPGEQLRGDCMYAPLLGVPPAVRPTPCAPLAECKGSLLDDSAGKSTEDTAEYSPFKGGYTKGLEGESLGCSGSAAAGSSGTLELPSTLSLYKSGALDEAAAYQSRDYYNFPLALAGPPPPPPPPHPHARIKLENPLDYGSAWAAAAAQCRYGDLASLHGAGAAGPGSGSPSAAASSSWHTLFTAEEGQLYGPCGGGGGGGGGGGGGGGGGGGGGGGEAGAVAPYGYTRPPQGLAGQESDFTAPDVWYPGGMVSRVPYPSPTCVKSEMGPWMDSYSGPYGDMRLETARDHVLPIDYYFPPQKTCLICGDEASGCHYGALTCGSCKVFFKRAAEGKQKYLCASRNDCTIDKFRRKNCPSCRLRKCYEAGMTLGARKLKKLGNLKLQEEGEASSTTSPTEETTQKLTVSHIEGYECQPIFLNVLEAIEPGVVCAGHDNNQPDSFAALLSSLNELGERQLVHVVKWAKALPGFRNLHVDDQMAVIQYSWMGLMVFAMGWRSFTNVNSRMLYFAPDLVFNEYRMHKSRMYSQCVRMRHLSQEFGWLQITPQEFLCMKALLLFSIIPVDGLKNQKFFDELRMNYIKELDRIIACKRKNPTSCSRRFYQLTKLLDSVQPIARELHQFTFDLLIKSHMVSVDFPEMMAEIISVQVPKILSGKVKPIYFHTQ

Target: full-length wild-type AR (hAR) (Homo sapiens, UniProt P10275)
Experiment: Transactivation (luciferase) assay in U2OS-hAR-ARE-Luc reporter cells, screen and validation
Assay type: cell-based
Details: 0.3, 1, 3, 10 µM, 16 h; hit = AR transcriptional activity changed by more than 50% dose-dependently, <20% effect in control cells
Description: U2OS-hAR-ARE(Rad9)-Luc and U2OS-hARv7-ARE(PB)-Luc were then used to screen the Prestwick phytochemical library®, containing 320 natural compounds, at four concentrations (0.3, 1, 3, 10 µM) in duplicate.

## Solanine alpha
  Results of 1st screen on AR: No effect
